These results are taken from patent publication US20080275430A1, “Prolonged Transit Time of Permeability-Enhancing Drug Eluting Pill” (priority 2004, published 2008).

Data set [1] concerns proximal ileum tissue samples. The settings on record: 18 Hz, 3 mA, 1 millisecond, at 7 minutes, vs region control (FIG. 36).
Data set [2] has as its system upper jejunum tissue segment. The settings on record: for permeation efficiency, effect of pulse cycle: 1 millisecond (FIG. 31); for ocreotide permeation vs control group: 3 mA (FIG. 29); for permeation efficiency, effect of electrode material: 1 millisecond (FIG. 34).
For data set [3], the system named is distal ileum tissue samples. The settings on record: 18 Hz, 3 mA, 1 millisecond, at 7 minutes, vs region control (FIG. 36).
Data set [4] deals with upper jejunum tissue segments. The settings on record: 12 Hz monophasic pulses, 1 millisecond, 3 mA, vs control without electrical stimulation; 1 mg/ml in HBSS pH 7.4, 90-minute period.

Read-outs that look alike come from different tables or passages of the source.

In the case of ocreotide acetate, the “permeation efficiency, effect of pulse application by intestinal region” value was “increased permeation efficiency” in data set [1]; “greatest effect of pulse application” in data set [2] (jejunal tissue, 18 Hz, 3 mA, 1 millisecond, at 7 minutes, vs region control (FIG. 36)); “positive but less pronounced effect” in data set [3]. The “permeation efficiency, effect of pulse cycle” value is recorded as “greatest permeation efficiency” in data set [2] (1 pulse per cycle among 1, 2, 3 pulses per cycle, 18 Hz, 3 mA); “permeation efficiency decreased” in data set [2] (as the number of pulses per cycle increased (2 and 3 pulses per cycle, 5-millisecond intervals), 18 Hz, 3 mA). The “transport enhancement ratio (ER), effect of pulse frequency” value in data set [2] (18 Hz among 5, 12, 18, 24, 30, 60 Hz, 1 millisecond, 3 mA, at 30 minutes (FIG. 28)) is reported as “greatest enhancement ratio”. The “permeation efficiency, effect of cessation of pulse application” value in data set [2] (continuous application vs cessation after 10 minutes, 18 Hz, 3 mA, 1 millisecond, normalized to non-stimulated control (FIG. 35)) was “substantially greater permeation efficiency”. Also, the “magnitude of permeation efficiency, effect of electrode distance from jejunal tissue” value in data set [2] (electrode distance 0.5 mm vs 3 mm, 18 Hz, 3 mA, 1 millisecond, at 15 minutes (FIG. 32)) was “greater at 0.5 mm than at 3 mm”. The “ocreotide permeation (permeation efficiency)” value in data set [2] (monophasic rectangular pulses 1 millisecond, 18 Hz, 3 mA, vs non-stimulated control group (FIG. 27)) is “substantially enhanced ocreotide permeation”. The “transport enhancement ratio (ER), effect of pulse duration” value in data set [2] (pulse duration 1 millisecond among 0.2, 0.5, 1, 3 milliseconds, 18 Hz, 3 mA, at 15 minutes (FIG. 30)) is on record as “greatest enhancement ratio”. Also, the “ocreotide permeation vs control group” value in data set [2] (pulses at 5 Hz, 1 millisecond) is given as “did not yield a higher ocreotide permeation”; in data set [2] (pulses at 60 Hz, 1 millisecond) it was “did not yield a higher ocreotide permeation”. The “permeation efficiency, effect of electrode material” value in data set [2] (silver chloride (AgCl) electrodes, 18 Hz, 3 mA) is “did not increase permeation efficiency”; in data set [2] (stainless steel (SS316L) electrodes, 18 Hz, 3 mA), “substantially increased permeation efficiency”; in data set [2] (titanium nitride (TN) electrodes, 18 Hz, 3 mA) it was “did not increase permeation efficiency”. Further, the “permeation efficiency, effect of electrode insulation” value in data set [2] (without divider 528, electrodes not insulated from each other, 18 Hz, 3 mA, 1 millisecond (FIG. 33)) is given as “did not increase permeation efficiency”. Also, the “ocreotide permeation into acceptor cell” value in data set [4] is given as “substantially greater increase in ocreotide permeation”.
